In patent US9212180B2 (priority 2013, dated 2015):
pIC50: −log10 of the molar value.

Protein sequences, listed by entry. Tags and fused reporters are not part of them.
UniProt O00255, whole entry: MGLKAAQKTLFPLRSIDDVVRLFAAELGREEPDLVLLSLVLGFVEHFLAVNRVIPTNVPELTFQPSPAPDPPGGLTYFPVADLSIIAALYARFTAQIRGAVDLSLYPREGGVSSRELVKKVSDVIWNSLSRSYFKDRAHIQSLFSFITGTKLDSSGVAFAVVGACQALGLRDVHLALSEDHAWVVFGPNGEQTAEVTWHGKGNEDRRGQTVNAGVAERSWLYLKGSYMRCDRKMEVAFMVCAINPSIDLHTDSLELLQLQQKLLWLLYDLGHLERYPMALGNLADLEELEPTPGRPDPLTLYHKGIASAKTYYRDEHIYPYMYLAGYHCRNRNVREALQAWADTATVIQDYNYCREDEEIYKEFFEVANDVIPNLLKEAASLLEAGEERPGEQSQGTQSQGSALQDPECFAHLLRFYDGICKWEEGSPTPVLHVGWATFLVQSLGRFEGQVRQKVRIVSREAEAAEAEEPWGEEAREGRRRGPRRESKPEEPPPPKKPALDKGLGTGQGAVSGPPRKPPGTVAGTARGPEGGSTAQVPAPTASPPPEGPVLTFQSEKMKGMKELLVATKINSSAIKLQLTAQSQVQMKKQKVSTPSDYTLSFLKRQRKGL

Biological target: menin-MLL interaction (Homo sapiens, UniProt O00255)
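Also: fluorescence polarization competition assay, inhibitors lower the fluorescence anisotropy signal, IC50 taken from this drop.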

NCc1ccc(OCCCN2CCC(C(O)(c3ccccc3)c3ccccc3)CC2)cc1
pIC50: 5.12
